The list is not random: actives were taken first. Their share in the collection is about 2.8%.
UUG fidelity = modulators of start codon recognition fidelity in yeast; S. cerevisiae UUG-firefly luciferase reporter, luminescence/redox ratio; AID 602363; 350,000 tested, 0.13% active; activity score, % at 18.7 µM;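 active = replicate mean at a twofold rise or more, about +100% in these data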;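 also: firefly luciferase made from a UUG start codon reports start codon fidelity; reporter light over untreated wells divided by growth signal over untreated wells; some hits fall short of that in this replicate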
PGC1a acetyl inh = inhibitors of PGC1a acetylation signal, primary screen, cell-based, U2OS, AlphaScreen, inhibitor mode. AlphaScreen anti-acetyl-lysine; with virally co-expressed GCN5 acetyltransferase. inhibition, % at 15.6 µM. 350,000 compounds, 0.17% hits. AID 651687, 2012;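 active = every replicate shows inhibition of at least 40%; inconclusive = mean inhibition at least 40% but some replicate below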
esBAF inh = Bmi1 luciferase reporter increase in mESCs, primary screen, esBAF inhibitor project, mouse ES cells, Bmi1 luciferase knock-in, single point | 24 h; 100% = twice the neutral-well signal | reporter increase, % at 12.5 µM | 350,000 compounds, 2% hits; in the data active = activation above about 40%; inconclusive = no clear call, values can overlap the other calls;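 also: a rise in the Bmi1 reporter signal indicates esBAF inhibition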
E-selectin induc = E-selectin induction in HUVECs, primary screen, imaging, HUVEC, immunofluorescence imaging, single point | AID 686992, 2013 | activation, % at 7.58 µM | normalized: neutral wells 0, TNF-alpha wells 100 | 260,000 compounds, 0.37% hits;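 active = mean E-selectin-positive cell signal at least 10% of the positive control, reached in at least 60% of replicates, without over 20% cell loss; inconclusive = no rule given, readout overlaps actives, possibly toxicity-flagged; inactive = the rest, including those meeting only one limit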
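Assay system: HUVEC, human umbilical vein endothelial cells / Amount: 3,000 HUVEC/well / Controls: TNF-alpha positive control, DMSO neutral control / Compound dosing: single concentration / Medium: EGM-2 over gelatin coat / Evaluation: percent E-selectin-positive cells / Signal: immunofluorescence imaging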
PglD inh = C. jejuni PglD acetyltransferase inhibitors, primary screen, biochemical, DTNB colorimetric, single point | 360,000 compounds, 0.098% hits | inhibition, % at 12.5 µM | UDP-N-acetylbacillosamine N-acetyltransferase PglD (Campylobacter jejuni) | purified PglD enzyme, DTNB colorimetric CoA detection; in the data active = inhibition above about 16%, passing the limit was not always enough; inconclusive = no clear call, values can overlap the other calls
C2C12 statin = suppressors of statin myotoxicity in C2C12 myotubes, primary screen, cell-based, single point, plate reader; C2C12 myotubes + simvastatin, ATP luminescence, 48 h; scaled: DMSO 0, geranylgeraniol control 100; 330,000 compounds, 0.78% hits; rescue of ATP level, % at 7.49 µM;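 active = mean ATP rescue above about 67%, or every replicate alone reaching that limit, limit read from the data, passing the limit was not always enough; inconclusive = no clear call, values can overlap the other calls; inactive = mean under the limit and some replicate under it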;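 also: myotubes were challenged with 10 µM simvastatin during compound exposure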
Of the large screens only hits and unclear results are named; the others gave an inactive call.

O=C(CN1CCN(C(=O)c2ccc(-c3nc4ccccc4s3)o2)CC1)Nc1ccc(F)cc1	esBAF inh 59 (no result: PGC1a acetyl inh, E-selectin induc)
O=C(C[C@H]1CC[C@H](NC(=O)Nc2ccc(C(F)(F)F)cc2)[C@@H](CO)O1)NCc1cccc(F)c1	none
Cc1ccc(C(=O)COC(=O)c2cc(=O)[nH]c3ccccc23)cc1C	esBAF inh 88 (no result: E-selectin induc)
O=c1c(-c2ccccc2)nc(-c2ccccc2)cn1O	esBAF inh 54 (no result: E-selectin induc)
O=C(O)Cn1c(=O)c(-c2ccccc2)nc2ccccc21	none (no result: E-selectin induc)
CC(=O)c1ccc2c(c1)N(Cc1ccccc1Cl)C(=O)C(C)S2 (stereo not drawn)	none (no result: E-selectin induc)
COC(=O)c1cccc(CN2C(=O)C(C)Sc3cc(Cl)ccc32)c1 (stereo not drawn)	esBAF inh 45
COC(=O)c1cccc(CN2C(=O)C(C)Sc3ccc(C)cc32)c1 (stereo not drawn)	none
COC(=O)c1cccc(CN2C(=O)C(C)Sc3ccc(C(C)=O)cc32)c1 (stereo not drawn)	esBAF inh 46
Cn1c(CSc2nc3ccccc3s2)nc2ccccc21	esBAF inh 50 (no result: E-selectin induc)
Cn1c(SCc2nc3ccccc3n2CCO)nc2ccccc21	none (no result: esBAF inh, E-selectin induc, C2C12 statin)
Cn1c(CSc2nc3ccccc3s2)n[nH]c1=S	none (no result: UUG fidelity, PGC1a acetyl inh, E-selectin induc, PglD inh, C2C12 statin)
Cn1c(CSc2ncn[nH]2)nc2ccccc21	C2C12 statin 98 (no result: E-selectin induc)
CC(C)NC(=O)N1[C@H](C#N)[C@@H](c2ccc(-c3ccc(F)cc3)cc2)[C@@H]1CO	C2C12 statin 76 (no result: UUG fidelity)
N#C[C@@H]1[C@@H](c2ccc(C#CC3CCCC3)cc2)[C@H](CO)N1C(=O)Cc1ccccn1	none (no result: UUG fidelity, esBAF inh, PglD inh, C2C12 statin)
CC(C)NC(=O)N1[C@H](CO)[C@@H](c2ccc(-c3ccc(F)cc3)cc2)[C@@H]1C#N	C2C12 statin inconclusive (no result: UUG fidelity)
N#C[C@H]1[C@H](c2ccc(C#CC3CCCC3)cc2)[C@H](CO)N1C(=O)Cc1ccccn1	PGC1a acetyl inh 59 (no result: UUG fidelity, esBAF inh, PglD inh, C2C12 statin)
N#C[C@H]1[C@H](c2ccc(-c3ccc(F)cc3)cc2)[C@@H](CO)N1C(=O)Cc1ccccc1	C2C12 statin 70
COc1ccc(NC(=O)Nc2cccc3c2O[C@@H](CN(C)S(C)(=O)=O)[C@H](C)CN([C@H](C)CO)C3=O)cc1	none (no result: C2C12 statin)
COc1ccc(N(Cc2cc(=O)[nH]c3ccccc23)C(=O)c2ccco2)cc1	C2C12 statin 135 (no result: E-selectin induc)
COc1ccc(CN(C(=O)c2ccco2)c2ccccc2)cc1	none (no result: E-selectin induc)
O=C(C1CC1)N1CC(=O)N2[C@H](CO)[C@H](c3ccc(-c4cccnc4)cc3)[C@H]2C1	none (no result: UUG fidelity, esBAF inh, PglD inh, C2C12 statin)
O=C(CSc1nc(-c2ccc(F)cc2)cs1)N1CCOCC1	esBAF inh 66 (no result: E-selectin induc)
O=C(O)C[C@H]1CC[C@@H](NC(=O)c2ccncc2)[C@@H](CO)O1	none (no result: UUG fidelity)
CC(C)NC(=O)Nc1ccc2c(c1)C(=O)N([C@H](C)CO)C[C@H](C)[C@@H](CN(C)C(=O)Nc1ccccc1)OCCCC[C@H](C)O2	none (no result: UUG fidelity, esBAF inh, E-selectin induc, C2C12 statin)
Cc1ccccc1NC1=C/C(=N\S(=O)(=O)c2cccs2)c2ccccc2C1=O	PGC1a acetyl inh 88 (no result: E-selectin induc)
CC(=O)Nc1ccc(NC2=C/C(=N/S(=O)(=O)c3cccs3)c3ccccc3C2=O)cc1	PGC1a acetyl inh 70 (no result: UUG fidelity, esBAF inh, E-selectin induc, PglD inh, C2C12 statin)
CC(C)C(=O)Nc1ccc2c(c1)C(=O)N(C)[C@@H]1CC[C@H](CC(=O)NCc3ccccc3)O[C@H]1CO2	none
COc1ccc2c3c([nH]c2c1)[C@@H](CO)N(C(=O)c1cnccn1)CC31CN(S(C)(=O)=O)C1	none (no result: UUG fidelity, esBAF inh, PglD inh, C2C12 statin)
CCN(CC)C(=O)Cn1cc(C(=O)C(=O)Nc2ccc3c(c2)OCCO3)c2ccccc21	esBAF inh 60 (no result: PGC1a acetyl inh)
COc1ccccc1NC(=O)C(=O)c1cn(CC(=O)N2CCOCC2)c2ccccc12	esBAF inh inconclusive (no result: E-selectin induc)
COc1ccccc1NC(=O)C(=O)c1cn(CC(=O)N2CCCC2)c2ccccc12	esBAF inh 72 (no result: UUG fidelity, PglD inh)
CC(=O)Nc1cccc(NC(=O)C(=O)c2cn(CC(=O)N3CCCC3)c3ccccc23)c1	esBAF inh 47 (no result: E-selectin induc)
CC(=O)Nc1ccc(NC(=O)C(=O)c2cn(CC(=O)N3CCCCC3)c3ccccc23)cc1	none (no result: UUG fidelity, esBAF inh, PglD inh, C2C12 statin)
